Source: patent US9695481B2, “Polynucleotides comprising a reporter sequence operatively linked to a regulatory element” (UNIVERSITEIT LEIDEN, priority 2010, dated 2017)

Experiments:
[1] = tested on: Bscl2-GFP and Srxn1-GFP mES reporter cells
[2] = cited from earlier work
[3] = tested on: mouse ES cell lines containing a DsRed fluorescent reporter; settings: cited from earlier work

Substance: Tert-butyl alcohol
- Bscl2-GFP/Srxn1-GFP GFP Induction [1]: Neg.
- In vivo genotoxicity [2]: Neg.
- mES DsRed reporters [3]: Neg.

Substance: n-butyl chloride
- Bscl2-GFP/Srxn1-GFP GFP Induction [1]: Neg.
